Experimental data as given in article PMC5431371, “Crystal structure-based discovery of a novel synthesized PARP1 inhibitor (OL-1) with apoptosis-inducing mechanisms in triple-negative breast cancer” (Scientific Reports, 2016).

Chains of the proteins cited; added tags and fusions are not shown.
UniProt P09874, whole entry: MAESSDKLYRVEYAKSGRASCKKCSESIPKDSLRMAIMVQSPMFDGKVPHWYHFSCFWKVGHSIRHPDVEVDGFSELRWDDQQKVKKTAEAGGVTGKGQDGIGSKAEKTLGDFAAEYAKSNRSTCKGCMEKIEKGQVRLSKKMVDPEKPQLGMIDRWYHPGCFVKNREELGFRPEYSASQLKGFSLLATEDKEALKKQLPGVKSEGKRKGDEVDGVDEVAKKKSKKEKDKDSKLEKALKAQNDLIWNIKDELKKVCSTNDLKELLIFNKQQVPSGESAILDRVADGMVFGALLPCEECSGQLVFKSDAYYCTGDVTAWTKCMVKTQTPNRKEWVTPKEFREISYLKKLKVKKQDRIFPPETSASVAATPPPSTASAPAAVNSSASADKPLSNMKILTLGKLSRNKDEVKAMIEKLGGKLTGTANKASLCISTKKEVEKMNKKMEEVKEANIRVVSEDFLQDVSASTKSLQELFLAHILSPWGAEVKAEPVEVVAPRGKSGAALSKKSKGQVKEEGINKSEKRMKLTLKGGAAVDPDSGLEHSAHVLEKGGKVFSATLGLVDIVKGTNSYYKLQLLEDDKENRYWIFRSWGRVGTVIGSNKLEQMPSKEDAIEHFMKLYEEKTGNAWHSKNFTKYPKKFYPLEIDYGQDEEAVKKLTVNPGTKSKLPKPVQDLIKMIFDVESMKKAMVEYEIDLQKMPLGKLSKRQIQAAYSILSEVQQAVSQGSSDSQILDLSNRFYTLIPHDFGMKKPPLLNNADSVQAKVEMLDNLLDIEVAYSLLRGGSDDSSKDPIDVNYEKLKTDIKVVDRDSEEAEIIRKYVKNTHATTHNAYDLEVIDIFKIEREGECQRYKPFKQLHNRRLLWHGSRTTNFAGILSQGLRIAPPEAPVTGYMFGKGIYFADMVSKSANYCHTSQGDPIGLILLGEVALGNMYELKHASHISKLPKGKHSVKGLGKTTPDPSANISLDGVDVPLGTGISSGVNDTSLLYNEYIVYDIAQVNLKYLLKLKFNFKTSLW

What was measured:
Recombinant Human PARP1 = Recombinant Human PARP1 (Homo sapiens, UniProt P09874); assay: PARP1 enzymatic inhibition assay (Universal Chemiluminescent PARP Assay Kit); assay type: biochemical; conditions: read-out: Enzymatic inhibition (IC50, μM) PARP1, mean ± SD, at least three independent experiments
MDA-MB-436 cells = assay: Cell viability assay (MTT); conditions: read-out: Anti-cell viability (IC50, μM) MDA-MB-436; MDA-MB-436 cells (BRAC1 mutant breast cancer); mean ± SD, at least three independent experiments
Method: Breast cancer cells including MCF-7, MDA-MB-231, MDA-MB-436 and MDA-MB-468 cells were obtained from American Type Culture Collection (ATCC, Manassas, VA, USA). The cells were fed with Leibovitz’s L-15 medium (MDA-MB-231, MDA-MB-436 and MDA-MB-468 cells) or DMEM medium (MCF-7 cells) containing 10% Fetal Bovine Serum, 100 μg/mL streptomycin and 100 U/mL penicillin. MDA-MB-231, MDA-MB-436 and MDA-MB-468 cells were cultured in humidified cell incubator with atmosphere at 37 °C while MCF-7 cells was cultured with 5% CO2 at 37 °C.
5 × 10^3 cells were seeded into each well in 96-well microplates and cultured for 24 h. Then the cells were exposed to different concentrations of OL-1 for 24 h. After drug treatment, the cell viabilities were detected by MTT assay.

| IC50 (Recombinant Human PARP1) [µM] | IC50 (MDA-MB-436 cells) [µM] | SMILES |
| --- | --- | --- |
| > 20 | – | CC(C)OC(=O)Cc1ccc2c(c1)C(=CCCN(C)C)c1ccccc1CO2 |
| 0.344 | 1.94 | CN(C)CCC=C1c2ccccc2COc2ccc(CC(N)=O)cc21 |
| 0.724 | 1.32 | CNC(=O)Cc1ccc2c(c1)C(=CCCN(C)C)c1ccccc1CO2 |
| 4.45 | 7.42 | CN(C)CCC=C1c2ccccc2COc2ccc(CC(=O)N(C)C)cc21 |
| 1.26 | 4.22 | CCNC(=O)Cc1ccc2c(c1)C(=CCCN(C)C)c1ccccc1CO2 |
| 18.9 | > 20 | CCN(CC)C(=O)Cc1ccc2c(c1)C(=CCCN(C)C)c1ccccc1CO2 |
| > 20 | – | CCCCNC(=O)Cc1ccc2c(c1)C(=CCCN(C)C)c1ccccc1CO2 |
| 13.5 | 19.3 | CCCNC(=O)Cc1ccc2c(c1)C(=CCCN(C)C)c1ccccc1CO2 |
